Reference: patent US9115102B2, “N-[2-hydroxycarbamoyl-2-(piperazinyl) ethyl] benzamide compounds, their preparation and their use as TACE inhibitors” (GALDERMA RESEARCH & DEVELOPMENT, priority 2009, dated 2015)

Amino acid sequences for entries named in this document (tags omitted). Residues count along the entry.
UniProt P78536, 215-824 limits assumed: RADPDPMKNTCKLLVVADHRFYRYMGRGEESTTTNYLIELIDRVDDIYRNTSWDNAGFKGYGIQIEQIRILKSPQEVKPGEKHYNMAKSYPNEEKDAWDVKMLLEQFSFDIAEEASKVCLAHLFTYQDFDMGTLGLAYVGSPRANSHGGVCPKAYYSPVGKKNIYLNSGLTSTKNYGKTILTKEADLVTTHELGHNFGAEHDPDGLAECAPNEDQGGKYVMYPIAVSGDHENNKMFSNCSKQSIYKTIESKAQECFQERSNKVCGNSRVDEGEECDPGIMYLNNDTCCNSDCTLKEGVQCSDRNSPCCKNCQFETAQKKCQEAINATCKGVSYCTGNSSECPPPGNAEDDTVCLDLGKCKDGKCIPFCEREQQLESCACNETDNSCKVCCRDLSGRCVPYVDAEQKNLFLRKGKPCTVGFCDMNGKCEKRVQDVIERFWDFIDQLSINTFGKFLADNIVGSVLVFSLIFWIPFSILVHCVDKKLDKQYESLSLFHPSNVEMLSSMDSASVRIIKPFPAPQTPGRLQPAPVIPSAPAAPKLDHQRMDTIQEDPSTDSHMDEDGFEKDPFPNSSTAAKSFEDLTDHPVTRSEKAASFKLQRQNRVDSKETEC

Target: TACE enzyme (Homo sapiens, UniProt P78536)
Assay: Enzymatic test of TACE inhibition (fluorescent substrate)
Format: biochemical
[1] = enzymatic test, substrate 40 μM, read-out: IC50 - TACE
[2] = selectivity table, read-out: IC50 TACE

With `Cc1cc(COc2ccc(C(=O)NC[C@@H](C(=O)NO)N3CCN(S(C)(=O)=O)CC3)cc2)c2ccccc2n1` [Example 14, N—[(S)-2-Hydroxycarbamoyl-2-(4-methane-sulphonylpiperazin-1-yl)ethyl]-4-(2-methylquinolin-4-ylmethoxy)benzamide] the IC50 [1] was 35 nM and the IC50 [2] was 35 nM.

`Cc1cc(COc2ccc(C(=O)NC[C@@H](C(=O)NO)N3CCN(S(C)(=O)=O)CC3)cc2)c2ccccc2n1.Cl.Cl` [Example 24, N—[(S)-2-Hydroxycarbamoyl-2-(4-methane-sulphonylpiperazin-1-yl)ethyl]-4-(2-methylquinolin-4-ylmethoxy)benzamide dihydrochloride] gave an IC50 (read-out: IC50 - TACE, enzymatic test, substrate 40 μM, listed as Ex24, dihydrochloride) of 88 nM.

`O=C(NCC(C(=O)NO)N1CCN(Cc2ccccc2)CC1)c1ccc(OCc2c(C(F)(F)F)nn3ccccc23)cc1` (centres unmarked) [Example 27, N-[2-(4-Benzylpiperazin-1-yl)-2-hydroxycarbamoylethyl]-4-(2-trifluoromethylpyrazolo[1,5-a]pyridin-3-ylmethoxy)benzamide] was tested, and the IC50 [1] was 81 nM and the IC50 [2] was 81 nM.

Where two headings read alike, the source gives them in different places.
